Amino acid sequences for entries named in this document (tags omitted). Residues count along the entry.
UniProt P21397, whole entry: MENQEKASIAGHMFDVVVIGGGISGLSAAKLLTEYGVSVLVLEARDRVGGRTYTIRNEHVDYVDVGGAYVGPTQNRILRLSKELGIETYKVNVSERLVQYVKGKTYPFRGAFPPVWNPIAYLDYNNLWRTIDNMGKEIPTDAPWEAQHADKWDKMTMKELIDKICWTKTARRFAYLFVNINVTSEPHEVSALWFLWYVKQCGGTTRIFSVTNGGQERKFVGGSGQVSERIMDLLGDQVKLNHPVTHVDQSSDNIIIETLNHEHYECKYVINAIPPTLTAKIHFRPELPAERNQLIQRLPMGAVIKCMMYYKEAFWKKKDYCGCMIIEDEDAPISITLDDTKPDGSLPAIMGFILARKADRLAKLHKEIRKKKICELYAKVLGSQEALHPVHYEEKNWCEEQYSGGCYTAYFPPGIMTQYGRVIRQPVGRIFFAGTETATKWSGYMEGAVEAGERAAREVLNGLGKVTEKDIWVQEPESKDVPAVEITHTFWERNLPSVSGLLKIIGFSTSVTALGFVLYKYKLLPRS
UniProt P27338, 2-520 limits assumed: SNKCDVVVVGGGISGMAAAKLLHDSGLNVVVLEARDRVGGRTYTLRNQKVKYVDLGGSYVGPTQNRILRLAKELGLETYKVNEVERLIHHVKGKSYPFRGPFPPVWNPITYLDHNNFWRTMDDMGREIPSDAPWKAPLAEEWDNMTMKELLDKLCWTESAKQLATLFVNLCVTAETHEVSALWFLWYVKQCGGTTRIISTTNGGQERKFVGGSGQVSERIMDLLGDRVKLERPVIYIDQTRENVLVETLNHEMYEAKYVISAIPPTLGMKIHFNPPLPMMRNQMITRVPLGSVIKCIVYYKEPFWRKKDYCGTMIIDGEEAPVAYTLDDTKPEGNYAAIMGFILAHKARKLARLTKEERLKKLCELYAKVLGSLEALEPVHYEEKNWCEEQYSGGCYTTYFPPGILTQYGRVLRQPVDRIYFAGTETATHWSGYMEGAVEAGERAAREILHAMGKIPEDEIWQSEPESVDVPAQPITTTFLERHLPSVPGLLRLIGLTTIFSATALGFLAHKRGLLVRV

In BindingDB's records for 14698188:

Target: Amine oxidase [flavin-containing] A/B (Homo sapiens, UniProt P21397+P27338)
Assay: ChEBML_220586
Method: Displacement of [3H]2-BFI (1 nM) from imidazoline receptor I-2 in human brain

`c1ccc2c(c1)OCC(C1=NCCN1)O2` (stereo unspecified) showed a Ki of 28 nM.
